The values that follow are results of earlier work, collected in patent US20230181464A1, “COMPOSITIONS FOR DELIVERY OF BIOACTIVE AGENTS INTO HAIR FOLLICLES” (FOLLICLE PHARMA LTD, priority 2020, published 2023).

The conditions of the series: cited from earlier work.

Turning to `CN(C/C=C/C#CC(C)(C)C)Cc1cccc2ccccc12`, the LogP result is given as “logP 5.53”.
